The list shows a part of the results, in another mix than the full data. Inconclusive results are not listed. The source made the active and inactive calls. Calls come from the whole dose curve; as a rule, active = well fitted inhibition curve with a large enough effect; inconclusive = small, poorly fitted or top-dose-only effect, or another doubt; inactive = no such curve, though single readings can be large or run the other way.

By UniProt entry, the sequences of proteins in these tests, tags left out. Where a name states a change or a piece, a line headed by the entry shows the natural chain unless it says otherwise.
UniProt P11473: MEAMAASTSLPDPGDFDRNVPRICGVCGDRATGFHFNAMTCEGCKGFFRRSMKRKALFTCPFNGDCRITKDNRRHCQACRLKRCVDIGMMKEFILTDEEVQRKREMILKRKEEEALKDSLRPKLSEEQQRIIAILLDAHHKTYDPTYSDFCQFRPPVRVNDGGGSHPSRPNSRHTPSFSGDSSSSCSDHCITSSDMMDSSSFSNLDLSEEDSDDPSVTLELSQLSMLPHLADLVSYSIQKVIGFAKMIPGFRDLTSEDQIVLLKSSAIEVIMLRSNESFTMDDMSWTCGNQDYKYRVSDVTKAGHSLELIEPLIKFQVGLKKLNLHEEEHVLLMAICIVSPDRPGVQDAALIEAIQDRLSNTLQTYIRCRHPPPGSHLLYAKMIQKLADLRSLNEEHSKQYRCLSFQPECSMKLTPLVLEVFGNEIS

Data on two compounds can be found in PubChem BioAssay AID504847 (National Center for Advancing Translational Sciences (NCATS), 2011).
Potency is the fitted concentration of half-maximal effect.

The assay concerns the target Vitamin D3 receptor (Homo sapiens) (UniProt P11473). Kind of assay: Inhibitors of the vitamin D receptor (VDR): qHTS. The note with it: VDR-SRC2-3 peptide fluorescence polarization, 2 h. For orientation: qHTS replaces the single test concentration by a dilution series.
As to `CC1(C)N([O-])c2cc([N+](=O)[O-])ccc2[N+]1=O`, the Potency was active: 50.1 µM. With `CCC(=O)O[C@H]1C(O[C@@H]2C(C)[C@H](O[C@H]3C[C@@](C)(OC)C(O)C(C)O3)C(C)C(=O)OC(CC)[C@@](C)(O)C(O)[C@H](C)C(=O)C(C)C[C@]2(C)O)OC(C)CC1N(C)C` (some centres not stated) the figure was active: 15.8 µM.
